Laboratory results: paper PMC11061832, “Antiviral Rotenoids and Isoflavones Isolated from Millettiaoblata ssp. teitensis” (Journal of Natural Products, 2024)
“Also recorded” adds a separate entry of the source.

Tests used:
HEp-2 cells = test: Microscopic recording of cytostatic activity in compound-treated HEp-2 cells; conditions: microscopy, PCP poor cell proliferation, ACS altered cell shape, PCS poor cell staining, concentration(s) at which seen in brackets
RSV = RSV plaque reduction assay in HEp-2 cells; conditions: CC50 HEp-2 / anti-RSV IC50

**Q.** Which results are given for `NC(=O)c1ncn([C@@H]2O[C@H](CO)[C@@H](O)[C@H]2O)n1` [ribavirin, reference compound]?
**A.** cytotoxicity: cytostatic activity (HEp-2 cells): cytostatic activity at 100.0 μM; also recorded: PCP (100 μM); SI (CC50/IC50) (RSV): >9.4
